The values that follow come from paper PMC3625376 (Journal of the American Chemical Society, 2013).

For this test, the target named is insulin receptor (Homo sapiens, UniProt P06213). The test is described as follows: insulin receptor-binding assay. To be noted: Table 1.

Turning to “[Asp^B10, Lys^B28, Pro^B29]-insulin [DKP insulin (biosynthetic)]”, the equilibrium dissociation constant (Kd) was determined as 0.029 ± 0.005 nM.

One may read the Kd as a measure of binding affinity in units of concentration. High values mean a looser complex, low ones a tighter complex.
